These results are taken from ChEMBL document CHEMBL1155778, “The many roles for fluorine in medicinal chemistry” (J Med Chem, 2008).

This series is described as follows: Dissociation constant, pKa of the compound. In kind it is physicochemical.

For the compound `Nc1cccc(F)c1`, the pKa (commonly the negative logarithm of the acid dissociation constant) amounted to 3.58.
